The entries are a selection whose mix differs from that of the whole data set. Activity calls are given as the source filed them.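 Rule for the calls: active = inhibition above the campaign mean plus 3 SD, with each screening campaign given its own cutoff (cut at about 60% in these data); inactive = the rest.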
molecular target: Nuclear receptor coactivator 1 (Homo sapiens) (UniProt Q15788); assay: SRC1 coactivator transcriptional activity inhibitors, primary screen, cell-based, luminescence (AID 588354); settings: HEK293 GAL4-SRC1 luciferase reporter, at 3.6 µM, active compounds read high;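 note: 0% = DMSO treated cells and 100% = gossypol at 36 µM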

Protein sequences, listed by entry. Tags and fused reporters are not part of them.
UniProt Q15788, whole entry: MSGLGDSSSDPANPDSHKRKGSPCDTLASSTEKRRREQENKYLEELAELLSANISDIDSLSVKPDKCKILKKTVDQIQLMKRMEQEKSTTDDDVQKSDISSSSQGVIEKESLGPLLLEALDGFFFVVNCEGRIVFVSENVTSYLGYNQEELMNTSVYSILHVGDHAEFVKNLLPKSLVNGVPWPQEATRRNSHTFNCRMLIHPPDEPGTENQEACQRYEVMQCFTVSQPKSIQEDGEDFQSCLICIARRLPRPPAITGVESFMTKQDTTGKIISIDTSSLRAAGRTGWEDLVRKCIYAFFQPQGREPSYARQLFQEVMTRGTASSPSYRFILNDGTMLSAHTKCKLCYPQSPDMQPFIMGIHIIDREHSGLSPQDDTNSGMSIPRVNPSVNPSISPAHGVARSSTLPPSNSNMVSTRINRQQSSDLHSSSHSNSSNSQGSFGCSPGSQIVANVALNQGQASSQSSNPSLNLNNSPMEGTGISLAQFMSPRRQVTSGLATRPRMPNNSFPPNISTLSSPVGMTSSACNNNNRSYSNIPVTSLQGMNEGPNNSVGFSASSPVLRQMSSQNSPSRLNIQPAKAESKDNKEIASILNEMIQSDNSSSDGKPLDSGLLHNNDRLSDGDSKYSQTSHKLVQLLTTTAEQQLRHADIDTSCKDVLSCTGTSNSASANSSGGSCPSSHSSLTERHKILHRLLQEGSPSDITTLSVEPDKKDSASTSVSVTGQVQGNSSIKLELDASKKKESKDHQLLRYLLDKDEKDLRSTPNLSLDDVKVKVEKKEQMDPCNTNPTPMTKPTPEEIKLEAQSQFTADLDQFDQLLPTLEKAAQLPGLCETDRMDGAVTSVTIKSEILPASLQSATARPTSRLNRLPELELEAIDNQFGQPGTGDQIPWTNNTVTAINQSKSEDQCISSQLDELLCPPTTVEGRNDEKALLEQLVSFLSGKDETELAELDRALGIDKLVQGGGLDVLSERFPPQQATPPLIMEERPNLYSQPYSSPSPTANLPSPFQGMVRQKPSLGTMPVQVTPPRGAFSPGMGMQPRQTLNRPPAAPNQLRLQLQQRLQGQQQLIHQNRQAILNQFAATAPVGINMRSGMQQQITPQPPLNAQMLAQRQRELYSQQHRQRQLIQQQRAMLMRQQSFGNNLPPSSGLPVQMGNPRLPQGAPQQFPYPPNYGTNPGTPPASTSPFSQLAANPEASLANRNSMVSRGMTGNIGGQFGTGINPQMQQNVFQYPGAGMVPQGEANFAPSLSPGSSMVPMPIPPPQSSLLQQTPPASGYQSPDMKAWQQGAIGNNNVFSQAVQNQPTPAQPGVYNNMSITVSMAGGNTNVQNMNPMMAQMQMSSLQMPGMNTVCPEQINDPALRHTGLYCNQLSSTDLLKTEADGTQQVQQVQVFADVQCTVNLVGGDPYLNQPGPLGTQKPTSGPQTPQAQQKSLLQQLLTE

| Structure (SMILES) | inhibition |
| --- | --- |
| CCC(=O)N(c1ccccc1)C1(COC)CCN(CCc2cccs2)CC1 | inactive: -5.54% |
| CCC(=O)N(c1ccccc1)C1(COC)CCN(CCn2nnn(CC)c2=O)CC1 | inactive: 5.77% |
